The values that follow are results of earlier work, collected in patent publication US7816404B2, “Methods for the preparation and use of ferric pyrophosphate citrate chelate compositions” (Rockwell Medical Technologies, Inc., priority 2007, dated 2010).

The conditions of data set [1]: after intravenous injection.
The conditions of data set [2]: formulated in water containing 0.9% sodium chloride, during injection.

Take iron dextran: the Bioavailable iron entry in data set [1] is “about half”. Moreover, in data set [2], the Adverse reactions entry was “occasionally causes severe allergic reactions, fever and rashes during injection”.
